Assays:
[1] = biological target: T1, rat MIF, recombinant (rat, UniProt P30904 2-115); assay: cell-based or functional assay
[2] = biological target: mouse MIF, recombinant (mouse, UniProt P34884 2-115); assay: SPR, Biacore 3000, RAM9 amine-coupled to CM5 chip, MIF injected at 40-480 nM, 1:1 Langmuir fit with mass transfer
[3] = biological target: T1, rat MIF, recombinant; assay: as above
[4] = biological target: T2, human MIF (macrophage migration inhibitory factor), recombinant (human, UniProt P14174 2-115); assay: SPR, Biacore 3000, RAM9 on CM5 chip
T2 construct: The background says that MIF crystallises as a trimer; In the potency rows the target is the endogenous MIF of human U937 cells; also called GIF

B1: RAM9 (antibody, human IgG1, kappa, V domains shown)
VH: EVQLLESGGGLVQPGGSLRLSCAASGFTFSIYSMNWVRQAPGKGLEWVSSIGSSGGTTYYADSVKGRFTISRDNSKNTLYLQMNSLRAEDTAVYYCAGSQWLYGMDVWGQGTTVTVSS
VL: DIQMTQSPSSLSASVGDRVTITCRSSQRIMTYLNWYQQKPGKAPKLLIFVASHSQSGVPSRFRGSGSETDFTLTISGLQPEDSATYYCQQSFWTPLTFGGGTKVEIKR
notes: also deposited as plasmids DSM 25860 (hc) and DSM 25859 (lc); also called anti-MIF antibody RAM9; anti-oxMIF antibody
- Potency (IC 50); inhibition of random migration of NR8383 rat macrophages, Transwell chemokinesis assay [1]: 11 nM
- Kd [2]: 6.9 nM
- Kd [3]: 5.6 nM
- fold higher affinity than for mouse and rat MIF [4]: ~3 fold
